# Test results: patent US7273716B2 (priority 2003, dated 2007)
# What was measured:
# Test in all cases: cell-based or functional assay
# [1] = molecular target: human leukocyte elastase (human) (UniProt P08246)
# [2] = molecular target: porcine liver carboxylesterase (porcine) (UniProt Q29550)
# [3] = molecular target: GS-7340 ester hydrolase purified from human peripheral blood mononuclear cells, identified as human protective protein for beta-galactosidase: Cathepsin A (human) (UniProt P10619)
# [4] = molecular target: porcine liver carboxylesterase (porcine, UniProt Q29550 19-566)
Molecule,"IC50 (µM), inhibition of enzymatic production of [14C] Metabolite X from Compound K [1]","IC50 (µM), inhibition of enzymatic production of [14C] Metabolite X from Compound K [2]","IC50 (µM), inhibition of enzymatic production of [14C] Metabolite X from Compound K [3]","IC50 (µM), inhibition of enzymatic production of [14C] Metabolite X from Compound K [4]"
MeOSuc-Ala-Ala-Pro-Ala-CMK (peptide),60 µM,> 1000 µM,,
MeOSuc-Ala-Ala-Pro-Val-CMK (peptide),4 µM,> 1000 µM,100 µM,
FA (N-terminal biotin; C-terminal fluoromethyl ketone (FMK)) [Biotin-Phe-Ala-FMK],,,,> 1000 µM
